Data on 102 molecules can be found in PubChem BioAssay AID624330 (Southern Research Specialized Biocontainment Screening …, 2012).

Protein sequences, listed by entry. Tags and fused reporters are not part of them. Lines headed by an entry give the natural chain unless they say otherwise; changes in a name come on top.
UniProt Q9H0H5: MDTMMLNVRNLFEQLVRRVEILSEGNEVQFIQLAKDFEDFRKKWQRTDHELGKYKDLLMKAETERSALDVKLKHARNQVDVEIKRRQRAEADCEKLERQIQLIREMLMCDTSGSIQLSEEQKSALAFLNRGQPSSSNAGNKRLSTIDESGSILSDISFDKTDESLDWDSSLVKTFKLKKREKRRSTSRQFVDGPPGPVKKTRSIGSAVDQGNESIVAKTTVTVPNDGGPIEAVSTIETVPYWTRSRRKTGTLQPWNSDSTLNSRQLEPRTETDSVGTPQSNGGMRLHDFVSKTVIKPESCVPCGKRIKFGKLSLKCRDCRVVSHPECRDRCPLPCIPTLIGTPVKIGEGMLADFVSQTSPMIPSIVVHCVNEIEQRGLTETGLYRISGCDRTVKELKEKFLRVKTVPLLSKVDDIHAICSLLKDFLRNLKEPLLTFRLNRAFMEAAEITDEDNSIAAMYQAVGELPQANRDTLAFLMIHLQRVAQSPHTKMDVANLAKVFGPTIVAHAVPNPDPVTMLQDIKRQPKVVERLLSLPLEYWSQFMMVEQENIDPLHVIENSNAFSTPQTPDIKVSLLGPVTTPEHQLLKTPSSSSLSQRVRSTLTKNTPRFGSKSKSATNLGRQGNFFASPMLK

The other results are listed elsewhere or left out. Entries with a potency or affinity are not part of this list. Activity calls are given as the source filed them.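 How the source made its calls: active means first-screen hits whose inhibition reached a set limit at any dose in the follow-up dose series; inconclusive means inhibition above the set first-screen limit but never retested; inactive means the rest.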

The target of the assay is Rac GTPase-activating protein 1 (Homo sapiens) (UniProt Q9H0H5). Kind of assay: blockers of MgcRacGAP-driven Rac1 GTP hydrolysis – biochemical, ADP Hunter fluorescence, primary and confirmatory, confirmation (AID 624330).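 Further: fluorescence reports GDP produced by GAP-driven GTP hydrolysis.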 The following applies: MgcRacGAP-stimulated Rac1 GTP hydrolysis, at 30 µM, active compounds read high, GST-tagged Rac1 F28L mutant substrate.
With `CCc1cc(O)c([N+](=O)[O-])c(C)c1[N+](=O)[O-]`, the inhibition was inactive: -0.66%.

Consider `CC(C)(C)C(=O)NC(Sc1ccccc1)C(Cl)(Cl)Cl` (configuration not stated), for which the inhibition is inactive: -0.84%.

For the molecule `CCOc1ccc(C2=NCC(CBr)S2)cc1` (configuration not stated), the inhibition was inactive: 4.84%.

As for `O=P1(Nc2nc3ccc(Cl)cc3s2)COc2ccccc2O1` (configuration not stated), the inhibition was inactive: 5.12%.

Take `CC(=O)Nc1ccc([As](=O)(O)O)c(O)c1`: the inhibition is inactive: 13.6%.

As for `COC(=O)C1(C)COP(=O)(NCc2ccccc2)OC1` (configuration not stated), the inhibition is inactive: -5.06%.

As to `N#C/C(=C\c1ccc(N(CCBr)CCBr)cc1)C(N)=O`, the inhibition is inactive: 13.8%.

Regarding `CC(=O)c1ccc(N2CC2c2ccncc2)cc1` (configuration not stated), the inhibition is inactive: 3.8%.

On to `C[C@@H]1C=CCP(=O)(Oc2ccccc2)O1` (some centres not stated), for which the inhibition was inactive: 11.9%.

For `C[C@H]1OP(=O)(Oc2ccccc2)C[C@@H]2O[C@@H]21` (some centres not stated), the inhibition is inactive: 4.9%.

Turning to `Cc1ccccc1CN(C)C(=O)COC(=O)C(O)(c1ccccc1)c1ccccc1`, the inhibition was inactive: -3.64%.

In the case of `O=P1(N(CCCl)CCCl)OCCC2CCCCN21` (configuration not stated), the inhibition is inactive: 7.27%.

For `CCNC(=S)/N=C(\N)N[N+](=O)[O-]`, the inhibition was inactive: -2.53%.

With `O=C(NC1CCS(=O)(=O)C1)NP(=S)(Oc1ccccc1)Oc1ccccc1` (configuration not stated), the inhibition was inactive: 3.92%.

Take `CN(C)C(=O)Oc1noc2ccccc12`: the inhibition was inactive: 9.88%.

For `O=c1c2cc([N+](=O)[O-])ccc2[nH]c2c([N+](=O)[O-])cc([N+](=O)[O-])cc12`, the inhibition is inactive: 8.96%.

For the molecule `Cc1ccccc1OP(=O)(Nc1ccccn1)Oc1ccccc1C`, the inhibition is inactive: 6.27%.

Consider `CC(NC(=O)COC(=O)C(O)(c1ccccc1)c1ccccc1)c1ccccc1` (configuration not stated), for which the inhibition is inactive: 4.19%.

With `CC(=O)NC(SC(=S)N(CC(C)C)CC(C)C)C(Cl)(Cl)Cl` (configuration not stated), the inhibition is inactive: 10.1%.

For `Cc1ccc(OP(=O)(Nc2ccccn2)Oc2ccc(C)cc2)cc1`, the inhibition was inactive: 6.68%.

For `COC(=O)c1cc2c(s1)N=C(c1ccccc1)N(C)P2(=O)N1CCOCC1` (configuration not stated), the inhibition is inactive: 11.1%.

Regarding `CCC(=O)N1C2C3N(C(=O)CC)C1C1N(C(=O)CC)C(C(N1C(=O)CC)N3C(=O)CC)N2C(=O)CC`, the inhibition is inactive: 11%.

For `O=C(OC1CN2CCC1CC2)c1ccccc1` (configuration not stated), the inhibition was inactive: 6.37%.

For the molecule `C[C@H]1OP(=O)(Oc2ccccc2)[C@H](O)[C@H](O)[C@H]1N=[N+]=[N-]` (some centres not stated), the inhibition was inactive: 15.3%.

As for `O=P(Nc1nc2ccccc2s1)(c1ccccc1)c1ccccc1`, the inhibition was inactive: 10.7%.

Consider `COc1ccc(N)c([N+](=O)[O-])c1[N+](=O)[O-]`, for which the inhibition was inactive: 1.55%.

For the molecule `O=P(Nc1ccccn1)(c1ccc(Br)cc1)c1ccc(Br)cc1`, the inhibition was inactive: -1.57%.

Consider `Nc1ccc([As](=O)(O)c2ccc([N+](=O)[O-])cc2)cc1`, for which the inhibition was inactive: 1.99%.

For `C(Cc1nn[nH]n1)Cc1nn[nH]n1`, the inhibition is inactive: -0.35%.

`O=C(OC1CN2CCC1CC2)c1cccc(Cl)c1` (configuration not stated): the inhibition was inactive: 12.8%.

For the molecule `O=[N+]([O-])c1ccc(O)c(/C=N/Nc2ccc([N+](=O)[O-])cc2[N+](=O)[O-])c1`, the inhibition is inactive: -8.09%.

Take `CC(=O)NC(SC(=S)N(C)C)C(Cl)(Cl)Cl` (configuration not stated): the inhibition is inactive: 5.27%.

Turning to `O=[N+]([O-])c1ncn(CCn2cnc([N+](=O)[O-])n2)n1`, the inhibition is inactive: 6.79%.

`O=[As](O)(c1ccccc1)c1ccc(O)cc1`: the inhibition is inactive: 11.2%.

For the molecule `c1nnnn1CCn1cnnn1`, the inhibition is inactive: 3.35%.

Regarding `CC(C)C(=O)NC(Sc1ccccc1)C(Cl)(Cl)Cl` (configuration not stated), the inhibition is inactive: -3.62%.

Consider `O=P(Nc1nccs1)(c1ccccc1)c1ccccc1`, for which the inhibition is inactive: 13.3%.

On to `O=[N+]([O-])c1cccc2n[nH]nc12`, for which the inhibition was inactive: 3.28%.

On to `CC(=O)N1C2C3N(C(C)=O)C1C1N(C(C)=O)C(C(N1C(C)=O)N3C(C)=O)N2C(C)=O`, for which the inhibition is inactive: 12.8%.

Take `CCc1nc2c(n1)c1c(non1O)c1c2no[n+]1[O-]`: the inhibition was inactive: 27.6%.

Take `O=[N+]([O-])c1cc([N+](=O)[O-])c(CCNc2ccccc2)c([N+](=O)[O-])c1`: the inhibition was inactive: 4.19%.

`Cc1ccc(NP(=O)(Oc2ccccc2)Oc2ccccc2)nc1`: the inhibition was inactive: -5.08%.

In the case of `COc1ccc(C2=NCC(CBr)S2)cc1` (configuration not stated), the inhibition is inactive: 15%.

On to `CN(C)C(=O)OCCc1n(C)cc[n+]1C`, for which the inhibition was inactive: 9.07%.

As to `CC(C)=N/N=C(\N)N[N+](=O)[O-]`, the inhibition is inactive: 2.89%.

As for `CC(C)c1nc(Nc2ccccc2)n(P(=O)(N(C)C)N(C)C)n1`, the inhibition is inactive: 7.8%.

On to `c1cc(-c2nn[nH]n2)ccc1-c1nn[nH]n1`, for which the inhibition was inactive: 8.69%.

Take `CC1CCN(C(=O)Oc2c(Cl)cc(Cl)c3cccnc23)CC1`: the inhibition is inactive: 10.7%.

For the molecule `C[N+]1=C2C=CC=CC=C2SC12C([N+](=O)[O-])=CC([N+](=O)[O-])=C[C-]2[N+](=O)[O-]` (configuration not stated), the inhibition was inactive: 41.5%.

`Nc1ccc([As](=O)(O)c2ccc(N)cc2)cc1`: the inhibition is inactive: -1.97%.

Take `CCN(/C(=N/P(=O)(N1CCOCC1)N1CCOCC1)N1CCOCC1)c1ccc(OC)cc1`: the inhibition is inactive: 5.91%.

Consider `O=C(Nc1cc([As](=O)(O)O)ccc1O)c1ccccc1`, for which the inhibition was inactive: 9.55%.

As to `O=P1(N(CCCl)CCCl)OCCCS1` (configuration not stated), the inhibition was inactive: -1.86%.

Turning to `O=[N+]([O-])c1cccc(NC2=NCC(CBr)S2)c1` (configuration not stated), the inhibition was inactive: 13.1%.

Regarding `COC(=O)C1(C)COP(=O)(Nc2ccccc2)OC1` (configuration not stated), the inhibition is inactive: -4.02%.

In the case of `O=C(O)CNc1ccc([As](=O)(O)O)cc1`, the inhibition is inactive: 7.59%.

`CC(C)(C)C(=O)NC(Sc1ccncn1)C(Cl)(Cl)Cl` (configuration not stated): the inhibition was inactive: -3.08%.

As for `O=[N+]([O-])c1ncn(CCn2ncnc2[N+](=O)[O-])n1`, the inhibition was inactive: -0.87%.

In the case of `Cc1ccc(NP(=O)(Oc2ccccc2F)Oc2ccccc2F)nc1`, the inhibition was inactive: -0.21%.

For `CN(C(=O)Cc1ccc(Cl)c(Cl)c1)[C@H]1CCCC[C@@H]1N1CCCC1`, the inhibition is inactive: 8.34%.

Turning to `CCOP(=O)(Nc1ccccc1)OCC`, the inhibition was inactive: 7.6%.

As to `Cc1cc(SC(NC(=O)c2ccc(F)cc2)C(Cl)(Cl)Cl)ncn1` (configuration not stated), the inhibition is inactive: 19.5%.

Regarding `CCCC1OP(N)(=O)OCC1CC` (configuration not stated), the inhibition is inactive: -5.98%.

Turning to `O=C(O)c1ccccc1[As](=O)(O)O`, the inhibition was inactive: 11.7%.

Turning to `CC(=O)Nc1ccc([As](=O)(O)O)cc1`, the inhibition is inactive: -11.5%.

With `CN(C)P(=O)(N(C)C)n1c(Nc2ccccc2)nnc1-c1ccccc1`, the inhibition is inactive: 7.47%.

`O=P(Nc1nc2ccc(Cl)cc2s1)(c1ccccc1)c1ccccc1`: the inhibition was inactive: -3.27%.

Regarding `CCN(N=Nc1nonc1N)c1nonc1N`, the inhibition was inactive: 10.1%.

`COc1ccccc1OP(=O)(Nc1ccc(C)cn1)Oc1ccccc1OC`: the inhibition is inactive: 5.03%.

For `Clc1ccc(Cl)c(NC2=NCC(CBr)S2)c1` (configuration not stated), the inhibition is inactive: 3.57%.

Take `CN1CCCC(OC(=O)C(c2ccccc2)c2ccccc2)C1` (configuration not stated): the inhibition is inactive: -2.62%.

For `NC(=O)c1cc([N+](=O)[O-])cc([N+](=O)[O-])c1N`, the inhibition was inactive: 7.07%.

As to `Cc1ccc(N/C(=N/P(=O)(N2CCOCC2)N2CCOCC2)N2CCOCC2)cc1`, the inhibition was inactive: -9.42%.

As for `CN(C(=O)Cc1ccc(Cl)c(Cl)c1)[C@H]1CCCC[C@H]1N1CCCC1`, the inhibition is inactive: 0.58%.

Consider `CC(C)CC(=O)NC(Sc1ccc(Cl)cc1)C(Cl)(Cl)Cl` (configuration not stated), for which the inhibition was inactive: 0.13%.

Take `Nc1cc(N)c2nonc2c1[N+](=O)[O-]`: the inhibition is inactive: 10.9%.

Consider `O=C(NC(Sc1ccncn1)C(Cl)(Cl)Cl)c1ccccc1` (configuration not stated), for which the inhibition was inactive: 11.8%.

As to `Oc1ccccc1CNc1ccccn1`, the inhibition was inactive: 7.15%.

In the case of `COc1cc(I)ccc1[As](=O)(O)O`, the inhibition is inactive: -0.32%.

As for `COc1ccc2nc(NP(=O)(c3ccccc3)c3ccccc3)sc2c1`, the inhibition was inactive: 4.88%.

For the molecule `O=P1(N(CCCl)CCCl)OCCCN1CCCl` (configuration not stated), the inhibition is inactive: 1.38%.

Regarding `O=P1(N(CCCl)CCCl)Nc2ccccc2N1`, the inhibition was inactive: 26.5%.

With `Cc1cc(=O)[nH]c(N[N+](=O)[O-])n1`, the inhibition is inactive: 9.53%.

In the case of `O=C(OC1CN2CCC1CC2)C12CC3CC(CC(C3)C1)C2` (configuration not stated), the inhibition was inactive: 8.14%.

As to `Cc1c2c(nc3ccccc13)SC(C(Cl)Cl)C2` (configuration not stated), the inhibition was inactive: 7.38%.

Turning to `COc1ccc(N/C(=N/P(=O)(N2CCOCC2)N2CCOCC2)N2CCOCC2)cc1`, the inhibition is inactive: 5.64%.

`O=[N+]([O-])c1cc(Oc2ccc([N+](=O)[O-])cc2C(F)(F)F)cc([N+](=O)[O-])c1`: the inhibition was inactive: 0.72%.

`Cc1ccc2nc3c(c(C)c2c1)CC(C(Cl)Cl)S3` (configuration not stated): the inhibition is inactive: 2.43%.

As to `Cc1ccc(OP(=O)(Nc2ccc([N+](=O)[O-])cn2)Oc2ccc(C)cc2)cc1`, the inhibition is inactive: 6.48%.

As for `COc1cc(C(=O)NCC2(N3CCOCC3)CCCCC2)ccc1OCC(C)C`, the inhibition is inactive: 1.47%.

Turning to `O=[N+]([O-])c1ccc(-c2cc([N+](=O)[O-])c(O)c([N+](=O)[O-])c2)cc1`, the inhibition is inactive: 3.39%.

With `C[As](=O)(O)c1cccc(C(=O)O)c1`, the inhibition is inactive: 6.75%.

`O=[As](O)(c1ccc(O)cc1)c1ccccc1O`: the inhibition is inactive: 2.18%.

For `O=[N+]([O-])c1cc([N+](=O)[O-])c(-c2ccn[nH]2)s1`, the inhibition is inactive: 7.19%.

Turning to `CCN(CC)C(=S)SC(NC=O)C(Cl)(Cl)Cl` (configuration not stated), the inhibition is inactive: 10.1%.

`O=C(OC1CN2CCC1CC2)c1cccc2[nH]cnc12` (configuration not stated): the inhibition is inactive: 11.1%.

As for `CC(C)c1ccc(OP(=O)(Nc2ccccn2)Oc2ccccc2F)cc1` (configuration not stated), the inhibition was inactive: -3.53%.

Turning to `COC(=O)C1(C)COP(=O)(N2CCCCCC2)OC1` (configuration not stated), the inhibition is inactive: 0.93%.

As to `ClCCSc1nnc(-c2cccnc2)o1`, the inhibition was inactive: 4.41%.

On to `Cc1cc(SC(NC(=O)c2ccccc2)C(Cl)(Cl)Cl)nc(C(C)C)n1` (configuration not stated), for which the inhibition was inactive: 10.7%.

Take `CCCCOc1ccc(C(=O)NCC2(N3CCCCC3)CCCCC2)cc1OC`: the inhibition is inactive: 4.17%.

For `COP(=O)(OC)N1CC1c1ccccc1` (configuration not stated), the inhibition is inactive: 9.67%.
